Data as given in patent US20070020267A1 (published 2007).

Sequences of proteins named here, by UniProt entry; tags and fusion partners are left off. A line that says so, or that is headed by a name, gives the form on record, which may keep a tag or linker.
UniProt P15692, other isoform, or with tags, fused parts or gaps: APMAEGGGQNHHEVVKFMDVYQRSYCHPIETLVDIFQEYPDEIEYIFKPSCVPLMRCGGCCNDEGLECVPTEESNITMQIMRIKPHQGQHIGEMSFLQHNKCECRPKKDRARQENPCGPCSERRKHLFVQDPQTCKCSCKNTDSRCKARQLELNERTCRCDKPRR

Target: human VEGF (hVEGF) (human, UniProt P15692 27-191)
Experiment: competition

B1: G6-23 Fab (Fab, V domains shown)
VH: EVQLVESGGGLVQPGGSLRLSCAASGFTISDYWIHWVRQAPGKGLEWVAGITPAGGYTYYADSVKGRFTISADTSKNTAYLQMNSLRAEDTAVYYCARFVFFLPYAMDYWGQGTLVTVSS
VL: DIQMTQSPSSLSASVGDRVTITCRASQDVSTAVAWYQQKPGKAPKLLIYSASFLYSGVPSRFSGSGSGTDFTLTISSLQPEDFATYYCKQGYANPWTFGQGTKVEIKR
IC50: 0.01 nM
